# Permeability data for macrocyclic peptides

Data: CycPeptMPDB; original report Furukawa et al. 2016, doi:10.1021/acs.jmedchem.6b01246.

PAMPA is the parallel artificial membrane permeability assay, which has no cells and reads passive diffusion.
Permeability is given as log10 of P in cm/s; higher (less negative) is more permeable.

| structure (SMILES) | PAMPA (log10 cm/s) |
|---|---|
| CCCC[C@@H]1NC(=O)[C@H](CC(C)C)N(C)C(=O)CN(CCCN2CCCC2=O)C(=O)[C@H](CC(C)C)NC(=O)CN(CCC)C(=O)[C@H]2CCCN2C1=O | -6.54 |
| CCCC[C@@H]1NC(=O)[C@H](CC(C)C)N(C)C(=O)CN(CC2CCOCC2)C(=O)[C@H](Cc2ccccc2)NC(=O)CN(CC(C)C)C(=O)[C@H]2CCCN2C1=O | -5.07 |
| CCCC[C@@H]1NC(=O)[C@H](CC(C)C)N(C)C(=O)CN(CCCc2ccccc2)C(=O)[C@H](Cc2ccc3ccccc3c2)NC(=O)CN(CCC)C(=O)[C@H]2CCCN2C1=O | -7.44 |
| CCCC[C@@H]1NC(=O)[C@H](CC(C)C)N(C)C(=O)CN(CC2CCCCC2)C(=O)[C@H](CC(C)C)NC(=O)CN(CC(C)C)C(=O)[C@H]2CCCN2C1=O | -6.20 |
| CCCCCN1CC(=O)N(C)[C@@H](CC(C)C)C(=O)N[C@@H](CCCC)C(=O)N2CCC[C@@H]2C(=O)N(Cc2ccccc2Cn2cccn2)CC(=O)N[C@@H](C)C1=O | -5.08 |
| CCCC[C@@H]1NC(=O)[C@H](CC(C)C)N(C)C(=O)CN(CCCN2CCCC2=O)C(=O)[C@H](Cc2ccccc2)NC(=O)CN(CCCOC(C)C)C(=O)[C@H]2CCCN2C1=O | -6.23 |
| CCCC[C@@H]1NC(=O)[C@H](CC(C)C)N(C)C(=O)CN(CCCc2ccccc2)C(=O)[C@H](CC(C)C)NC(=O)CN(Cc2ccc(Cl)cc2)C(=O)[C@H]2CCCN2C1=O | -7.97 |
| CCCC[C@@H]1NC(=O)[C@H](CC(C)C)N(C)C(=O)CN(CCCc2ccccc2)C(=O)[C@H](Cc2ccc3ccccc3c2)NC(=O)CN(CC(C)C)C(=O)[C@H]2CCCN2C1=O | -8.95 |
| CCCC[C@@H]1NC(=O)[C@H](CC(C)C)N(C)C(=O)CN(CCCN2CCCC2=O)C(=O)[C@H](Cc2ccccc2)NC(=O)CN(Cc2ccc(Cl)cc2)C(=O)[C@H]2CCCN2C1=O | -5.78 |
| CCCC[C@@H]1NC(=O)[C@H](CC(C)C)N(C)C(=O)CN(CC2CCCCC2)C(=O)[C@H](CC(C)C)NC(=O)CN(Cc2ccc3c(c2)OCO3)C(=O)[C@H]2CCCN2C1=O | -7.50 |
| CCCC[C@@H]1NC(=O)[C@H](CC(C)C)N(C)C(=O)CN(CC2CCCCC2)C(=O)[C@H](C)NC(=O)CN(Cc2ccc(Cl)cc2)C(=O)[C@H]2CCCN2C1=O | -6.01 |
| CCCCCN1CC(=O)N(C)[C@@H](CC(C)C)C(=O)N[C@@H](CCCC)C(=O)N2CCC[C@@H]2C(=O)N(Cc2cc(CC(C)C)on2)CC(=O)N[C@@H](Cc2ccc3ccccc3c2)C1=O | -7.96 |
| CCCC[C@@H]1NC(=O)[C@H](CC(C)C)N(C)C(=O)CN(CCc2cccnc2)C(=O)[C@H](C)NC(=O)CN(Cc2ccc(Cl)cc2)C(=O)[C@H]2CCCN2C1=O | -5.65 |
| CCCCCN1CC(=O)N(C)[C@@H](CC(C)C)C(=O)N[C@@H](CCCC)C(=O)N2CCC[C@@H]2C(=O)N(CCCCc2ccccc2)CC(=O)N[C@@H](C)C1=O | -5.60 |
| CCCC[C@@H]1NC(=O)[C@H](CC(C)C)N(C)C(=O)CN(CCOc2ccccc2)C(=O)[C@H](Cc2ccccc2)NC(=O)CN(CCC)C(=O)[C@H]2CCCN2C1=O | -6.05 |

2 of these entries, quoted again:

| structure (SMILES) | PAMPA (log10 cm/s) |
|---|---|
| CCCC[C@@H]1NC(=O)[C@H](CC(C)C)N(C)C(=O)CN(CC2CCCCC2)C(=O)[C@H](CC(C)C)NC(=O)CN(Cc2ccc3c(c2)OCO3)C(=O)[C@H]2CCCN2C1=O | -7.50 |
| CCCC[C@@H]1NC(=O)[C@H](CC(C)C)N(C)C(=O)CN(CCCN2CCCC2=O)C(=O)[C@H](Cc2ccccc2)NC(=O)CN(Cc2ccc(Cl)cc2)C(=O)[C@H]2CCCN2C1=O | -5.78 |

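Conditions beyond the assay type are not listed; see the original paper. The list need not hold all peptides of the study. Peptides that the database sets to -10, its floor, are left out.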